Earlier results on one molecule are cited in patent publication US6087346A, “Sigma receptor ligands and the use thereof” (Cambridge Neuroscience, Inc., priority 1996, dated 2000).

Sequences of proteins named here, by UniProt entry; tags and fusion partners are left off.
UniProt Q60492, whole entry: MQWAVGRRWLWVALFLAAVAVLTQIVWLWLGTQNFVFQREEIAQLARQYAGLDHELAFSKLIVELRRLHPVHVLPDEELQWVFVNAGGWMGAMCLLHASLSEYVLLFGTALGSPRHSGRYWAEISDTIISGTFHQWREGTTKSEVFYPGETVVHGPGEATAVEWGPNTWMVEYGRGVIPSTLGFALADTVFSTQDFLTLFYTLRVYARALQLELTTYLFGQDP

The data set addresses sigma-1 site (Cavia porcellus, UniProt Q60492). The settings on record: Hellewell and Bowen (1990); cited from earlier work.

For the molecule `C=CCN1CCC2(C)c3cc(O)ccc3CC1C2C` (stereo not shown) [NANM, N-allyl normetazocine], the “affinity for the sigma-1 site compared to the sigma-2 site” value is given as “nearly two orders of magnitude higher affinity for the sigma-1 site compared to the sigma-2 site”.
